Earlier results as cited in US6544565B2, “Use of Valeriana for the treatment of Restless Leg Syndrome and related disorders” (Ancile Pharmaceuticals, Inc., priority 1999, dated 2003).

Sequences of proteins named here, by UniProt entry; tags and fusion partners are left off.
UniProt P35462, whole entry: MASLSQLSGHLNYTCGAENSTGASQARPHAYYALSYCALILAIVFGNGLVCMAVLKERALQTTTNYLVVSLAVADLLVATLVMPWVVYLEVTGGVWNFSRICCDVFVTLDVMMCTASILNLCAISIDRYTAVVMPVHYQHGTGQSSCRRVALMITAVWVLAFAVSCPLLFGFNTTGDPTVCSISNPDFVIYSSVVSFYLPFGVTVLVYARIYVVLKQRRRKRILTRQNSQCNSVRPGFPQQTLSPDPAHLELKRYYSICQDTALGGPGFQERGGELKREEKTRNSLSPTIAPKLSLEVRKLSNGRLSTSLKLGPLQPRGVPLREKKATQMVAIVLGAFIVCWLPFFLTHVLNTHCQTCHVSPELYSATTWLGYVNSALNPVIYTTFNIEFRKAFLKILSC

Molecular target: human dopamine D3 receptor (Homo sapiens, UniProt P35462)
Conditions: Reference Data for receptor binding assay; cited from earlier work

| Substance | IC50 [nM] | Ki [nM] | nH |
| --- | --- | --- | --- |
| S-(−)-Sulpiride | 850 | 48 | 1.0 |
| 7-Chloro-2,3,4,5-tetrahydro-3-methyl-5-phenyl-1H-3-benzazepine-7-ol [SCH-23390] | > 10000 | – | – |
